Source: patent publication US20060167075A1, “Modulators of FAAH” (priority 2005, published 2006)

Chains of the proteins cited; added tags and fusions are not shown. Residues count along the entry.
UniProt P23219, 24-599: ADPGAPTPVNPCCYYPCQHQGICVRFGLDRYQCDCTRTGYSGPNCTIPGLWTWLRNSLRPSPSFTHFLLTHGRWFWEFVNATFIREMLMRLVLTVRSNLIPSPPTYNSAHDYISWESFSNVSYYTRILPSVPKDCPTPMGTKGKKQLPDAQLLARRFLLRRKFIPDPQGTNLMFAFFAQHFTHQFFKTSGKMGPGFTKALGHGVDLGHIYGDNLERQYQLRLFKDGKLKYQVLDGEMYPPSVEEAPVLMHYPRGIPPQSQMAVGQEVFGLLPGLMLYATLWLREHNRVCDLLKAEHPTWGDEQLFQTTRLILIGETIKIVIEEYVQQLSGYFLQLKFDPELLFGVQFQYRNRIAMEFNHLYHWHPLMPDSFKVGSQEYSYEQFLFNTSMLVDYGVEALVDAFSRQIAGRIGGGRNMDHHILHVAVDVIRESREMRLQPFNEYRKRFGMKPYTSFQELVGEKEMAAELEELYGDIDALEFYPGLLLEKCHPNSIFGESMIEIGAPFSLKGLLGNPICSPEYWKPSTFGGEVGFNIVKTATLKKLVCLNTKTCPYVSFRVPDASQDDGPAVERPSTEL

Molecular target: COX-1 (Homo sapiens, UniProt P23219)
Assay: cell-based

Row | IC50 [µM] | Structure (SMILES)
1 | 39 | CS(=O)(=O)c1ccc(C2=C(c3ccccc3)C(=O)OC2)cc1 [Rofecoxib]
2 | 100 | Cc1onc(-c2ccccc2)c1-c1ccc(S(N)(=O)=O)cc1 [Valdecoxib, 4-(5-methyl-3-phenyl-isoxazol-4-yl)benzenesulfonamide]
